Measured values published in PMC7017188.

Target: biotinylated 60S ribosomal subunit
Experiment: AlphaScreen or HTRF; homogeneous, in solution in 384-well plates; serial dilution of His-tagged eIF6 with 0.5 nM 60S-Bio; streptavidin donor beads capture 60S-Bio, Ni-NTA acceptor beads His-eIF6 (20 ug/mL each); PBS pH 7.4, 5 mM MgCl2, 0.2% BSA, 0.02% Tween-20; room temperature

With “His-tagged eukaryotic initiation factor 6 (eIF6), full length recombinant (from UniProt P56537 1-245) (natural protein)” the Kd was 40 nM.
